{"source": "patent US20070093969A1", "about": "“Molecular nephrotoxicology modeling” (priority 2002, published 2007)", "origin": "cited, not measured here", "system": "tubulin", "conditions": "cited from earlier work", "data": [{"smiles": "COc1cc2c(c(OC)c1OC)-c1ccc(OC)c(=O)cc1[C@@H](NC(C)=O)CC2", "note": "[colchicine, Colchicine]", "values": [{"measurement": "microtubule polymerization status", "result": "extensive microtubule depolymerization"}, {"measurement": "total tubulin levels", "result": "decreased twofold"}]}]}
